Source: paper PMC9554468, “Assessing potency and binding kinetics of soluble adenylyl cyclase (sAC) inhibitors to maximize therapeutic potential” (Frontiers in Physiology, 2022)

Assays:
[1] = molecular target: T1, immobilized His-tagged human sACt protein (Homo sapiens, UniProt Q96PN6); experiment: surface plasmon resonance with purified sAC protein; type: binding
T1 construct: SPR used highly pure C-terminal tagged sACt-His6; made in house; host or cells: Sf9 insect cells (baculovirus)
T1 sequence (Q96PN6 1-469 limits assumed): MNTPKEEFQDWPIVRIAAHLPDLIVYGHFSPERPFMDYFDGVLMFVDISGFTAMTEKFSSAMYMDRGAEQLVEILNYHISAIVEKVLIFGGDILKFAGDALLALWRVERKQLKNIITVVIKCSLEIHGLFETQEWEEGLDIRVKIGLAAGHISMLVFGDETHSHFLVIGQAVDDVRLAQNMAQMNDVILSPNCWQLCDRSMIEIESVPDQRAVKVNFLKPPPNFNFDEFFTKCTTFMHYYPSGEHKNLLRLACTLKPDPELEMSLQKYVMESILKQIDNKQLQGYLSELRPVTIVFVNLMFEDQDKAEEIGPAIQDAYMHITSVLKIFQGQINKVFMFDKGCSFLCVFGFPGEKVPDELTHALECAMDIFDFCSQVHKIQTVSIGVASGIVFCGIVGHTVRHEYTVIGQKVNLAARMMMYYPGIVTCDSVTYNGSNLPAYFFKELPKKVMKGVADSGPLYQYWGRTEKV

[2] = molecular target: T2, purified recombinant human soluble adenylyl cyclase (sAC) protein (Homo sapiens, UniProt Q96PN6); experiment: biochemical; conditions: ~0.25 nM sAC, 2 mM ATP, 10 mM Mn2+, 30°C; read-out: Subnanomolar assay IC50
T2 sequence (Q96PN6 1-469 limits assumed): T1 sequence (Q96PN6 1-469 limits assumed)

SMILES	Ki ([1]; 25°C SPR affinity, 25°C) [nM]	Ki ([1]; 37°C SPR affinity, 37°C) [nM]	IC50 [2] [nM]
Cc1c(Cc2ccccc2)c(-c2cc(Cl)nc(N)n2)nn1C [TDI-10229]	193 ± 27	423 ± 16	
Cn1cc(Cc2ccccc2OCCN2CCOCC2)c(-c2cc(Cl)nc(N)n2)n1 [TDI-11155]			11
